One molecule from US20090143279A1 (priority 2007, published 2009) can be followed below.

Test systems include C2C12 myotubes; reactive oxygen species; OXPHOS gene expression; nuOXPHOS transcripts; mtOXPHOS transcripts; cytochrome c.
Common to all, as to details: composite Z-score vs DMSO; Conc 20 μM
Assay [1] relates to cellular dehydrogenase activity.
The subject of assay [2] is mitochondrial membrane potential.

For the molecule `CC(C)C[C@H](NC(=O)[C@@H]1CCCN1C(=O)[C@@H](N)C(C)C)C(=O)O` [diprotin B], the Viability in the assay on C2C12 myotubes was −0.639. Moreover, in assay [1], the MTT is −0.589. In assay [2], this molecule returned a ΔΨm of 0.153. This molecule had an ROS in the assay with reactive oxygen species of 0.689. Besides, the GE-HTS in the assay with OXPHOS gene expression is recorded as −0.522. Further, in the assay on nuOXPHOS transcripts, the nucOX is recorded as −0.682. In the assay with mtOXPHOS transcripts, the mitoOX was −0.126. Further, the cyt c with cytochrome c is −1.537.
